This note sets out measurements from PubChem BioAssay AID2803 (The Scripps Research Institute Molecular Screening Center, 2010).

By UniProt entry, the sequences of proteins in these tests, tags left out.
UniProt Q4J6C6, whole entry: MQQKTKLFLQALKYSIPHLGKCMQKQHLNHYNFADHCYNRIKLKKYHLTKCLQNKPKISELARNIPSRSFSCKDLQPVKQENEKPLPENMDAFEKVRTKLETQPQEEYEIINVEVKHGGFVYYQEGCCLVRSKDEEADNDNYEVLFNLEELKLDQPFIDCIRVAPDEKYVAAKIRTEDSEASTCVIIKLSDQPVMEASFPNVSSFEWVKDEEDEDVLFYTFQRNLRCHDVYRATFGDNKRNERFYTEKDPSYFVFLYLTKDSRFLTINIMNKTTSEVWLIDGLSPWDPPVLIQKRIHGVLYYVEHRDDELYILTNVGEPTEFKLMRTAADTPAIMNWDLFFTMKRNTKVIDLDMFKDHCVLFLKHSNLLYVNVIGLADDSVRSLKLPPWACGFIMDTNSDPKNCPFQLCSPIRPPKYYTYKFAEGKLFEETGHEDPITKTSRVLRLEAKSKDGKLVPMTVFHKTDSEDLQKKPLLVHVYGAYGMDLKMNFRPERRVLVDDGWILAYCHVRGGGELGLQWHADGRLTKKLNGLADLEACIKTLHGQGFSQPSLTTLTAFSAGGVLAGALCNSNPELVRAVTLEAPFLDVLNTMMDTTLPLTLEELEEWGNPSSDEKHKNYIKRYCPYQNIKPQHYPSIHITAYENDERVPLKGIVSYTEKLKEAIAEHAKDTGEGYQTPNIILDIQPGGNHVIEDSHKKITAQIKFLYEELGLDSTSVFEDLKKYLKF

Each structure is given as a SMILES string. The list shows a part of the results, in another mix than the full data. Some results for these compounds are left out of this collection, so the calls shown say nothing about other tests. Active and inactive are the calls of the source. Cut-off read from the data, not from the text of the source: active = inhibition above about 43%; inactive = the rest.

The target in the test is Prolyl endopeptidase-like (Homo sapiens) (UniProt Q4J6C6). The test is described as follows: human PREPL enzyme inhibitors, confirmation, biochemical, fluorescence polarization (AID 2803).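 Note: 0% = protein with DMSO and 100% = wells lacking protein.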 Conditions: recombinant PREPL, fluorescence polarization activity probe; at 5.96 µM; hits give high values. A general note: Fluorescence polarisation rises when a labelled molecule tumbles more slowly, as on binding a larger partner.
In the case of `CCN(CC)CC(C)C(C)OC(=O)C(O)(c1ccccc1)c1ccccc1` (stereo unspecified), the inhibition is inactive: 38.2%.

For orientation: inhibition means the drop in the measured response relative to a control, in per cent.
